This is a selection; strong and weak results do not stand in their true shares. Some tests of the compounds listed are not included; inactive here does not mean inactive elsewhere. Calls of active or inactive are those of the source.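 Rule for the calls: active = mean ATP rescue above about 67%, or every replicate alone reaching that limit (limit read from the data, passing the limit was not always enough); inconclusive = no clear call, values can overlap the other calls; inactive = mean under the limit and some replicate under it.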
experiment: protection of differentiated C2C12 cells from simvastatin – single point, plate reader, primary screen (AID 602340); conditions: C2C12 myotubes + simvastatin, ATP luminescence, 48 h; at 7.49 µM; active compounds read high; scaled: DMSO 0, geranylgeraniol control 100;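 note: myotubes were challenged with 10 µM simvastatin during compound exposure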

| SMILES | rescue of ATP level |
| --- | --- |
| CN(C)c1ccc(C(=O)NCC2(N(C)C)CCCCC2)cc1 | inactive: 4.7% |
| COc1ccc(C(=O)NCC2(N(C)C)CCCCC2)cc1 | inactive: -11.1% |
| Cc1cc(C(=O)NCC2(N3CCCCC3)CCCCC2)ccc1[N+](=O)[O-] | inactive: -3.47% |
| O=C(NCC1(N2CCCCC2)CCCCC1)c1cccc(Br)c1 | inactive: -7.09% |
| O=C(NCC1(N2CCCCC2)CCCCC1)c1cc(F)c(F)cc1Cl | inactive: -2.94% |
| CN1[C@@H]2CC[C@H]1CC(OC(=O)C(O)(c1ccccc1)c1ccccc1)C2 (some centres undefined) | inactive: 3.48% |
| Cc1ccc(C(=O)NCC2(N3CCCCC3)CCCCC2)cc1 | inactive: 29.7% |
| COc1cc(SC)ccc1C(=O)NCC1(N(C)C)CCCCC1 | inactive: 2.49% |
| CC(C)N1C(=O)CC2(CCN(CCOC(=O)C(O)(c3ccccc3)c3ccccc3)CC2)C1=O | inactive: -18.5% |
| O=C(OC1CN2CCC1CC2)C(CO)(c1ccccc1)c1ccccc1 (centres undefined) | inactive: 6.93% |
| CC(C)Oc1ccc(C(=O)NCC2(N(C)C)CCCCC2)cc1 | inactive: -0.787% |
| O=C(OCCN1CCCC1)C(O)(c1ccccc1)c1ccccc1 | inactive: 3.66% |
| CN(C)c1cccc(C(=O)NCC2(N(C)C)CCCCC2)c1 | inactive: -2.17% |
| C=C(C)C#CC(O)(C(=O)OC1CCN(C)CC1)c1ccccc1 (centres undefined) | inactive: 5.84% |
| COc1ccc(Br)c(C(=O)NCC2(N3CCCCC3)CCCCC2)c1 | inactive: 11.8% |
| COc1cc(C(=O)NCC2(N(C)C)CCCCC2)c([N+](=O)[O-])cc1OC | inactive: -17.1% |
| CN(C)C1(CNC(=O)c2ccc(Br)cc2)CCCCC1 | inactive: -9.16% |
| O=C(NCC1(N2CCCCC2)CCCCC1)c1cccc(Cl)c1 | inactive: -0.906% |
| COc1ccc(Cl)cc1C(=O)NCC1(N(C)C)CCCCC1 | inactive: -10.5% |

— PubChem BioAssay AID602340 (Broad Institute, 2012)
